SMILES strings stand for the structures. In brackets after ≈: the same amount, converted by molar mass. Like-named read-outs stand apart in the source and are kept apart here.

By IC50 is commonly meant the concentration that gives 50% inhibition.

The subject of one test is MAXF 401NL (breast). The following applies: for IC50: Homo sapiens, read-out: IC50 of standard agent alone.
The subject of test [1] is LXF 1121L (lung). The following applies: for IC50: Homo sapiens, read-out: IC50 of standard agent alone.
The test system of test [2] is LXF 1121L (lung).

Turning to `O=c1[nH]cc(F)c(=O)[nH]1` [5-FU, 5-fluoro-uracil], the IC50 with MAXF 401NL (breast) was found to be 139 ng/mL (≈ 1.07 µM); with LXF 1121L (lung) [1], 939 ng/mL (≈ 7.22 µM). For `COc1cccc2c1C(=O)c1c(O)c3c(c(O)c1C2=O)C[C@@](O)(C(=O)CO)C[C@@H]3O[C@H]1C[C@H](N)[C@H](O)[C@H](C)O1` [ADR, adriamycin], in that order: 7 ng/mL (≈ 0.0129 µM) and 13 ng/mL (≈ 0.0239 µM). Regarding `N.N.[Cl][Pt][Cl]` [Cis-Platin, cisplatin], the “IC50 of standard agent alone” value is 1120 ng/mL in the test on MAXF 401NL (breast) (no Breastin, Exp. GF653) and above 30000 ng/mL in the test on LXF 1121L (lung) [1] (no Breastin, Exp. GF651). `CO[C@@]12[C@H](COC(N)=O)C3=C(C(=O)C(C)=C(N)C3=O)N1C[C@@H]1N[C@@H]12` [Mitomycin, mitomycin-C] had an IC50 in the test with LXF 1121L (lung) [2] of 55 ng/mL (≈ 0.165 µM). Take `CCC1=C[C@@H]2CN(C1)Cc1c([nH]c3ccccc13)[C@@](C(=O)OC)(c1cc3c(cc1OC)N(C)[C@H]1[C@@](O)(C(=O)OC)[C@H](OC(C)=O)[C@]4(CC)C=CCN5CC[C@]31[C@@H]54)C2` [Navelbine, navelbine]: the 50% inhibitory concentration (IC50) with LXF 1121L (lung) [2] was found to be 5 ng/mL (≈ 0.00642 µM).

Take `CC(=O)O[C@H]1C(=O)[C@@]2(C)[C@H]([C@H](OC(=O)c3ccccc3)[C@]3(O)C[C@H](OC(=O)[C@H](O)[C@@H](NC(=O)c4ccccc4)c4ccccc4)C(C)=C1C3(C)C)[C@]1(OC(C)=O)CO[C@@H]1C[C@@H]2O` [TAXOL, taxol]: the values for the IC50 in the test with MAXF 401NL (breast) and with LXF 1121L (lung) [1] were 0.44 ng/mL (≈ 0.000515 µM) and 1.8 ng/mL (≈ 0.00211 µM), respectively.

In the test with LXF 1121L (lung) [2], `CC[C@@]1(O)C(=O)OCc2c1cc1n(c2=O)Cc2cc3c(CN(C)C)c(O)ccc3nc2-1` [Topotecan, topotecan] had an IC50 of 5 ng/mL (≈ 0.0119 µM).
